Assay results: US11911361B2, “Stable cannabinoid formulations” (priority 2014, dated 2024)

System: minimal muscular or neurological impairment
Assay: Minimal motor impairment (rotorod) toxicity test (TOX), mice

C=C(C)[C@@H]1CCC(C)=C[C@H]1c1c(O)cc(CCCCC)cc1O [cannabidiol, (−)-trans-2-p-mentha-1,8-dien-3-yl-5-pentylresorcinol]
TOX N/F (minimal motor impairment) (Anticonvulsant Screening, mice, intraperitoneal, 10 mg/kg, 0.5 h, ethanol:polyethoxylated castor oil:PBS): 0/8
TOX N/F (minimal motor impairment) (Anticonvulsant Screening, mice, intraperitoneal, 10 mg/kg, 0.5 h, methylcellulose): 0/8
TOX N/F (minimal motor impairment) (Anticonvulsant Screening, mice, intraperitoneal, 10 mg/kg, 1.0 h, ethanol:polyethoxylated castor oil:PBS): 0/8
TOX N/F (minimal motor impairment) (Anticonvulsant Screening, mice, intraperitoneal, 10 mg/kg, 1.0 h, methylcellulose): 0/8
TOX N/F (minimal motor impairment) (Anticonvulsant Screening, mice, intraperitoneal, 10 mg/kg, 2.0 h, ethanol:polyethoxylated castor oil:PBS): 0/8
TOX N/F (minimal motor impairment) (Anticonvulsant Screening, mice, intraperitoneal, 10 mg/kg, 2.0 h, methylcellulose): 0/8
TOX N/F (minimal motor impairment) (Anticonvulsant Screening, mice, intraperitoneal, 30 mg/kg, 0.5 h, ethanol:polyethoxylated castor oil:PBS): 0/8
TOX N/F (minimal motor impairment) (Anticonvulsant Screening, mice, intraperitoneal, 30 mg/kg, 0.5 h, methylcellulose): 0/8
TOX N/F (minimal motor impairment) (Anticonvulsant Screening, mice, intraperitoneal, 30 mg/kg, 1.0 h, ethanol:polyethoxylated castor oil:PBS): 0/8
TOX N/F (minimal motor impairment) (Anticonvulsant Screening, mice, intraperitoneal, 30 mg/kg, 1.0 h, methylcellulose): 0/8
TOX N/F (minimal motor impairment) (Anticonvulsant Screening, mice, intraperitoneal, 30 mg/kg, 2.0 h, ethanol:polyethoxylated castor oil:PBS): 0/8
TOX N/F (minimal motor impairment) (Anticonvulsant Screening, mice, intraperitoneal, 30 mg/kg, 2.0 h, methylcellulose): 0/8
TOX N/F (minimal motor impairment) (Anticonvulsant Screening, mice, intraperitoneal, 100 mg/kg, 0.5 h, ethanol:polyethoxylated castor oil:PBS): 0/8
TOX N/F (minimal motor impairment) (Anticonvulsant Screening, mice, intraperitoneal, 100 mg/kg, 0.5 h, methylcellulose): 0/8
TOX N/F (minimal motor impairment) (Anticonvulsant Screening, mice, intraperitoneal, 100 mg/kg, 1.0 h, ethanol:polyethoxylated castor oil:PBS): 0/8
TOX N/F (minimal motor impairment) (Anticonvulsant Screening, mice, intraperitoneal, 100 mg/kg, 1.0 h, methylcellulose): 0/8
TOX N/F (minimal motor impairment) (Anticonvulsant Screening, mice, intraperitoneal, 100 mg/kg, 2.0 h, ethanol:polyethoxylated castor oil:PBS): 0/8
TOX N/F (minimal motor impairment) (Anticonvulsant Screening, mice, intraperitoneal, 100 mg/kg, 2.0 h, methylcellulose): 0/8
TOX N/F (minimal motor impairment) (ED50 Biological Response (Table 57), mice, 500 mg/kg, 2 h, methylcellulose): 0/8
TOX N/F (minimal motor impairment) (ED50 Biological Response (Table 59, MES/sc Met study), mice, 175 mg/kg, 2 h, ethanol:polyethoxylated castor oil:PBS): 0/8
TOX N/F (minimal motor impairment) (ED50 Biological Response (Table 59, MES/sc Met study), mice, 250 mg/kg, 2 h, ethanol:polyethoxylated castor oil:PBS): 4/8
TOX N/F (minimal motor impairment) (ED50 Biological Response (Table 59, MES/sc Met study), mice, 325 mg/kg, 2 h, ethanol:polyethoxylated castor oil:PBS): 6/8
toxicity observations (in words) (Example 12, 1:1:18 ethanol:polyethoxylated castor oil:PBS solvent): Death was reported at 24 hours at 300 mg/kg and at 6 and 24 hours for 500 mg/kg
toxicity observations (in words) (Example 13): Myoclonic jerks were reported in at 1 hour with 200 mg/kg dose and at 2 hours with 360 mg/kg dose
TOX N/F (minimal motor impairment) (Tables 55/56 (6 Hz study), CF1 mice, intraperitoneal, 200 mg/kg, 2 h, ethanol:polyethoxylated castor oil:PBS): 0/8
TOX N/F (minimal motor impairment) (Tables 55/56 (6 Hz study), CF1 mice, intraperitoneal, 250 mg/kg, 2 h, ethanol:polyethoxylated castor oil:PBS): 4/8
TOX N/F (minimal motor impairment) (Tables 55/56 (6 Hz study), CF1 mice, intraperitoneal, 300 mg/kg, 2 h, ethanol:polyethoxylated castor oil:PBS): 6/8
TOX N/F (minimal motor impairment) (Tables 55/56 (6 Hz study), CF1 mice, intraperitoneal, 500 mg/kg, 2 h, ethanol:polyethoxylated castor oil:PBS): 8/8
TOX N/F (minimal motor impairment) (Tables 59/60 (MES/sc Met study), mice, 500 mg/kg, 2 h, ethanol:polyethoxylated castor oil:PBS): 8/8
TOX N/F (minimal motor impairment) (Time to Peak Effect (Table 56), CF1 mice, intraperitoneal, 200 mg/kg, 4 h, ethanol:polyethoxylated castor oil:PBS): 0/8
TOX N/F (minimal motor impairment) (Time to Peak Effect (Table 56), CF1 mice, intraperitoneal, 250 mg/kg, 4 h, ethanol:polyethoxylated castor oil:PBS): 3/8
TOX N/F (minimal motor impairment) (Time to Peak Effect (Table 56), CF1 mice, intraperitoneal, 300 mg/kg, 4 h, ethanol:polyethoxylated castor oil:PBS): 7/8
TOX N/F (minimal motor impairment) (Time to Peak Effect (Table 56), CF1 mice, intraperitoneal, 300 mg/kg, 6 h, ethanol:polyethoxylated castor oil:PBS): 4/8
TOX N/F (minimal motor impairment) (Time to Peak Effect (Table 56), CF1 mice, intraperitoneal, 300 mg/kg, 8 h, ethanol:polyethoxylated castor oil:PBS): 2/8
TOX N/F (minimal motor impairment) (Time to Peak Effect (Table 56), CF1 mice, intraperitoneal, 300 mg/kg, 24 h, ethanol:polyethoxylated castor oil:PBS): 1/8
TOX N/F (minimal motor impairment) (Time to Peak Effect (Table 56), CF1 mice, intraperitoneal, 500 mg/kg, 0.25 h, ethanol:polyethoxylated castor oil:PBS): 0/8
TOX N/F (minimal motor impairment) (Time to Peak Effect (Table 56), CF1 mice, intraperitoneal, 500 mg/kg, 0.5 h, ethanol:polyethoxylated castor oil:PBS): 0/8
TOX N/F (minimal motor impairment) (Time to Peak Effect (Table 56), CF1 mice, intraperitoneal, 500 mg/kg, 1 h, ethanol:polyethoxylated castor oil:PBS): 0/8
TOX N/F (minimal motor impairment) (Time to Peak Effect (Table 56), CF1 mice, intraperitoneal, 500 mg/kg, 4 h, ethanol:polyethoxylated castor oil:PBS): 8/8
TOX N/F (minimal motor impairment) (Time to Peak Effect (Table 56), CF1 mice, intraperitoneal, 500 mg/kg, 6 h, ethanol:polyethoxylated castor oil:PBS): 8/8
TOX N/F (minimal motor impairment) (Time to Peak Effect (Table 56), CF1 mice, intraperitoneal, 500 mg/kg, 24 h, ethanol:polyethoxylated castor oil:PBS): 4/7
TOX N/F (minimal motor impairment) (Time to Peak Effect (Table 58), mice, 300 mg/kg, 0.25 h, methylcellulose): 0/4
TOX N/F (minimal motor impairment) (Time to Peak Effect (Table 58), mice, 300 mg/kg, 0.5 h, methylcellulose): 0/4
TOX N/F (minimal motor impairment) (Time to Peak Effect (Table 58), mice, 300 mg/kg, 1 h, methylcellulose): 0/4
TOX N/F (minimal motor impairment) (Time to Peak Effect (Table 58), mice, 300 mg/kg, 2 h, methylcellulose): 0/4
TOX N/F (minimal motor impairment) (Time to Peak Effect (Table 58), mice, 300 mg/kg, 4 h, methylcellulose): 0/4
TOX N/F (minimal motor impairment) (Time to Peak Effect (Table 60), mice, 500 mg/kg, 0.25 h, ethanol:polyethoxylated castor oil:PBS): 0/8
TOX N/F (minimal motor impairment) (Time to Peak Effect (Table 60), mice, 500 mg/kg, 0.5 h, ethanol:polyethoxylated castor oil:PBS): 0/8
TOX N/F (minimal motor impairment) (Time to Peak Effect (Table 60), mice, 500 mg/kg, 1 h, ethanol:polyethoxylated castor oil:PBS): 0/8
TOX N/F (minimal motor impairment) (Time to Peak Effect (Table 60), mice, 500 mg/kg, 4 h, ethanol:polyethoxylated castor oil:PBS): 7/8
TOX N/F (minimal motor impairment) (Time to Peak Effect (Table 60), mice, 500 mg/kg, 6 h, ethanol:polyethoxylated castor oil:PBS): 7/8
TOX N/F (minimal motor impairment) (Time to Peak Effect (Table 60), mice, 500 mg/kg, 8 h, ethanol:polyethoxylated castor oil:PBS): 4/8
